Measurements reported in US20250064844A1 (Emory University, priority 2020, published 2025).

Settings: both, cynomolgus monkey, in vivo, po

| SMILES | improvement of the bioavailability of EIDD-1931 by the prodrug |
| --- | --- |
| CC(C)C(=O)OC[C@H]1O[C@@H](n2ccc(NO)nc2=O)[C@H](O)[C@@H]1O [EIDD-2801] | 4-8 fold |
| CC(C)[C@H](N)C(=O)OC[C@H]1O[C@@H](n2ccc(NO)nc2=O)[C@H](O)[C@@H]1O [EIDD-2898] | 4-8 fold |
| CC(C)C(=O)OC[C@H]1O[C@@H](n2ccc(NO)nc2=O)[C@H](OC(=O)C(C)C)[C@@H]1OC(=O)C(C)C [EIDD-2800] | 4-8 fold |
